Measurements taken from PubChem BioAssay (NCI).
Several values for one entry are separate records, joined by “and”; a condition that tells them apart may be missing. Equal entries are not always repeated. Only a part is listed here, and it is no random draw.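 Testing used 96-well plates and a 48-hour single-concentration exposure. Example: -40 means 40% of the starting cells died.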 Activity calls are given as the source filed them. Rule for the calls: active = growth percent below 10; inactive = the rest.

Key:
Assay in all cases: NCI-60 one-dose screen, 48 h (100 = growth as untreated, 0 = no growth, -100 = all killed)
Conditions in all cases: 10 µM unless noted
MOLT-4 leukemia = system: MOLT-4 leukemia
SR leukemia = system: SR leukemia
RPMI-8226 leukemia = system: RPMI-8226 leukemia
OVCAR-8 ovarian = system: OVCAR-8 ovarian
OVCAR-5 ovarian = system: OVCAR-5 ovarian
OVCAR-4 ovarian = system: OVCAR-4 ovarian
SK-OV-3 ovarian = system: SK-OV-3 ovarian
IGROV1 ovarian = system: IGROV1 ovarian
OVCAR-3 ovarian = system: OVCAR-3 ovarian
HS 578T breast = system: HS 578T breast
NCI/ADR-RES ovarian = system: NCI/ADR-RES ovarian
T-47D breast = system: T-47D breast
BT-549 breast = system: BT-549 breast
MDA-MB-435 melanoma = system: MDA-MB-435 melanoma
SW-620 colon = system: SW-620 colon
MCF7 breast = system: MCF7 breast
HCT-116 colon = system: HCT-116 colon
HCC-2998 colon = system: HCC-2998 colon
KM12 colon = system: KM12 colon

Measured: growth

COc1cc([N+](=O)[O-])cc([N+](=O)[O-])c1
inactive: MOLT-4 leukemia 92.7% | SR leukemia 90.2% | RPMI-8226 leukemia 99.5% | OVCAR-8 ovarian 102% | OVCAR-5 ovarian 117% | OVCAR-4 ovarian 102% | SK-OV-3 ovarian 107% | IGROV1 ovarian 130% | OVCAR-3 ovarian 116% | HS 578T breast 114% | NCI/ADR-RES ovarian 99.4% | T-47D breast 104% | BT-549 breast 99.3% | MDA-MB-435 melanoma 109% | SW-620 colon 108% | MCF7 breast 85.7% | HCT-116 colon 88.4% | HCC-2998 colon 118% | KM12 colon 101%

CCOP(=O)(Nc1ccccc1Cl)OCC
inactive: MOLT-4 leukemia 93.6% | SR leukemia 100% | RPMI-8226 leukemia 100% | OVCAR-8 ovarian 98.4% | OVCAR-5 ovarian 114% | OVCAR-4 ovarian 89.9% | SK-OV-3 ovarian 94.8% | IGROV1 ovarian 86% | OVCAR-3 ovarian 91.9% | HS 578T breast 90.4% | NCI/ADR-RES ovarian 96.8% | T-47D breast 98.5% | BT-549 breast 85.6% | MDA-MB-435 melanoma 105% | SW-620 colon 93.6% | MCF7 breast 106% | HCT-116 colon 93.1% | HCC-2998 colon 107% | KM12 colon 90.9%

O=S1(=O)CC(Sc2ccccc2)[C@@H](Cl)C1 (some centres undefined)
inactive: MOLT-4 leukemia 99.1% | SR leukemia 102% | RPMI-8226 leukemia 94.5% | OVCAR-8 ovarian 100% | OVCAR-5 ovarian 121% | OVCAR-4 ovarian 101% | SK-OV-3 ovarian 106% | IGROV1 ovarian 109% | OVCAR-3 ovarian 109% | HS 578T breast 97.5% | NCI/ADR-RES ovarian 110% | T-47D breast 88.4% | BT-549 breast 102% | MDA-MB-435 melanoma 107% | SW-620 colon 101% | MCF7 breast 103% | HCT-116 colon 103% | HCC-2998 colon 108% | KM12 colon 106%

COc1ccc(N)c([N+](=O)[O-])c1[N+](=O)[O-]
inactive: MOLT-4 leukemia 99.5% | SR leukemia 99.9% | RPMI-8226 leukemia 91.2% | OVCAR-8 ovarian 95.6% | OVCAR-5 ovarian 99% | OVCAR-4 ovarian 103% | SK-OV-3 ovarian 115% | IGROV1 ovarian 110% | OVCAR-3 ovarian 111% | HS 578T breast 103% | NCI/ADR-RES ovarian 99.2% | T-47D breast 96.7% | BT-549 breast 114% | MDA-MB-435 melanoma 104% | SW-620 colon 106% | MCF7 breast 95.7% | HCT-116 colon 92.6% | HCC-2998 colon 113% | KM12 colon 114%

COP(=O)(CCCBr)OC
inactive: MOLT-4 leukemia 104% | SR leukemia 95.1% | RPMI-8226 leukemia 101% | OVCAR-8 ovarian 96.6% | OVCAR-5 ovarian 96.7% | OVCAR-4 ovarian 100% | SK-OV-3 ovarian 103% | IGROV1 ovarian 106% | OVCAR-3 ovarian 120% | HS 578T breast 117% | NCI/ADR-RES ovarian 105% | T-47D breast 101% | BT-549 breast 103% | MDA-MB-435 melanoma 99.3% | SW-620 colon 111% | MCF7 breast 95.3% | HCT-116 colon 102% | HCC-2998 colon 112% | KM12 colon 115%

COC(=O)N(C)[N+](=O)[O-]
inactive: MOLT-4 leukemia 105% | SR leukemia 103% | RPMI-8226 leukemia 97.7% | OVCAR-8 ovarian 99.8% | OVCAR-5 ovarian 98.4% | OVCAR-4 ovarian 96.4% | SK-OV-3 ovarian 112% | IGROV1 ovarian 98.2% | OVCAR-3 ovarian 129% | HS 578T breast 107% | NCI/ADR-RES ovarian 115% | T-47D breast 101% | BT-549 breast 99.7% | MDA-MB-435 melanoma 106% | SW-620 colon 109% | MCF7 breast 92.8% | HCT-116 colon 103% | HCC-2998 colon 110% | KM12 colon 115%

COc1cc([N+](=O)[O-])c([N+](=O)[O-])cc1OC
inactive: MOLT-4 leukemia 78.7% and 97.7% | SR leukemia 78% and 101% | RPMI-8226 leukemia 100% | OVCAR-8 ovarian 97.9% and 106% | OVCAR-5 ovarian 107% | OVCAR-4 ovarian 91.6% and 113% | SK-OV-3 ovarian 97.4% and 108% | IGROV1 ovarian 117% and 103% | OVCAR-3 ovarian 114% and 106% | HS 578T breast 109% and 115% | NCI/ADR-RES ovarian 105% and 106% | T-47D breast 94.1% and 109% | BT-549 breast 90.7% and 112% | MDA-MB-435 melanoma 98.9% and 115% | SW-620 colon 103% and 108% | MCF7 breast 85.4% and 104% | HCT-116 colon 104% and 105% | HCC-2998 colon 111% and 99.1% | KM12 colon 103% and 106%

ClCCNCC1COc2ccccc2O1 (centres undefined)
inactive: MOLT-4 leukemia 99.7% | SR leukemia 90.6% | RPMI-8226 leukemia 102% | OVCAR-8 ovarian 99.9% | OVCAR-5 ovarian 102% | OVCAR-4 ovarian 112% | SK-OV-3 ovarian 104% | IGROV1 ovarian 108% | OVCAR-3 ovarian 104% | HS 578T breast 95.4% | NCI/ADR-RES ovarian 109% | T-47D breast 88.7% | BT-549 breast 99.4% | MDA-MB-435 melanoma 108% | SW-620 colon 104% | MCF7 breast 97.4% | HCT-116 colon 104% | HCC-2998 colon 110% | KM12 colon 98.8%

O=[N+]([O-])c1ccc([N+](=O)[O-])cc1
inactive: MOLT-4 leukemia 121% | SR leukemia 97.5% | RPMI-8226 leukemia 119% | OVCAR-8 ovarian 94% | OVCAR-5 ovarian 97.8% | OVCAR-4 ovarian 107% | SK-OV-3 ovarian 115% | IGROV1 ovarian 112% | OVCAR-3 ovarian 111% | HS 578T breast 97.9% | NCI/ADR-RES ovarian 99.1% | T-47D breast 97.1% | BT-549 breast 114% | MDA-MB-435 melanoma 111% | SW-620 colon 103% | MCF7 breast 95.5% | HCT-116 colon 92% | HCC-2998 colon 111% | KM12 colon 90.8%

O=[N+]([O-])c1cc2cn[nH]c2cc1[N+](=O)[O-]
inactive: MOLT-4 leukemia 98.7% | SR leukemia 99% | RPMI-8226 leukemia 95.2% | OVCAR-8 ovarian 115% | OVCAR-5 ovarian 110% | OVCAR-4 ovarian 116% | SK-OV-3 ovarian 99.8% | IGROV1 ovarian 89.8% | OVCAR-3 ovarian 116% | HS 578T breast 84.1% | NCI/ADR-RES ovarian 101% | T-47D breast 101% | BT-549 breast 93.9% | MDA-MB-435 melanoma 108% | SW-620 colon 101% | MCF7 breast 81.8% | HCT-116 colon 104% | HCC-2998 colon 110% | KM12 colon 105%

CCOCCN(CCCl)Cc1ccccc1
inactive: MOLT-4 leukemia 90.3% | SR leukemia 92% | RPMI-8226 leukemia 94.2% | OVCAR-8 ovarian 97.5% | OVCAR-5 ovarian 102% | OVCAR-4 ovarian 126% | SK-OV-3 ovarian 102% | IGROV1 ovarian 108% | OVCAR-3 ovarian 107% | HS 578T breast 108% | NCI/ADR-RES ovarian 105% | T-47D breast 85.1% | BT-549 breast 104% | MDA-MB-435 melanoma 108% | SW-620 colon 112% | MCF7 breast 100% | HCT-116 colon 96.3% | HCC-2998 colon 107% | KM12 colon 106%

CN(C)C(=O)NP(=O)(N(C)C)N(C)C
inactive: MOLT-4 leukemia 103% | SR leukemia 101% | RPMI-8226 leukemia 109% | OVCAR-8 ovarian 108% | OVCAR-5 ovarian 102% | OVCAR-4 ovarian 106% | SK-OV-3 ovarian 111% | IGROV1 ovarian 105% | OVCAR-3 ovarian 117% | HS 578T breast 115% | NCI/ADR-RES ovarian 102% | T-47D breast 103% | BT-549 breast 114% | MDA-MB-435 melanoma 103% | SW-620 colon 106% | MCF7 breast 95.9% | HCT-116 colon 105% | HCC-2998 colon 108% | KM12 colon 109%

O=C1OP(=O)(Cl)Oc2ccccc21 (centres undefined)
inactive: MOLT-4 leukemia 86.9% | SR leukemia 101% | RPMI-8226 leukemia 96.5% | OVCAR-8 ovarian 101% | OVCAR-5 ovarian 111% | OVCAR-4 ovarian 110% | SK-OV-3 ovarian 98.7% | IGROV1 ovarian 107% | OVCAR-3 ovarian 112% | HS 578T breast 83.7% | NCI/ADR-RES ovarian 102% | T-47D breast 93.9% | BT-549 breast 110% | MDA-MB-435 melanoma 105% | SW-620 colon 98.6% | MCF7 breast 98.2% | HCT-116 colon 97.7% | HCC-2998 colon 104% | KM12 colon 104%

CCN(CCCl)c1ccc(CCC(=O)O)cc1
inactive: MOLT-4 leukemia 85.4% | SR leukemia 84.2% | RPMI-8226 leukemia 103% | OVCAR-8 ovarian 97% | OVCAR-5 ovarian 104% | OVCAR-4 ovarian 108% | SK-OV-3 ovarian 95.5% | IGROV1 ovarian 94.1% | OVCAR-3 ovarian 108% | HS 578T breast 92.1% | NCI/ADR-RES ovarian 106% | T-47D breast 90.6% | BT-549 breast 99.4% | MDA-MB-435 melanoma 109% | SW-620 colon 92.5% | MCF7 breast 93.6% | HCT-116 colon 98.1% | HCC-2998 colon 104% | KM12 colon 100%

CC(C)(NCCCl)C(O)c1ccccc1 (centres undefined)
inactive: MOLT-4 leukemia 66.2% | SR leukemia 68.6% | RPMI-8226 leukemia 85.2% | OVCAR-8 ovarian 80.2% | OVCAR-5 ovarian 118% | OVCAR-4 ovarian 93.6% | SK-OV-3 ovarian 94.3% | IGROV1 ovarian 96% | OVCAR-3 ovarian 98.6% | HS 578T breast 103% | NCI/ADR-RES ovarian 94.6% | T-47D breast 71.8% | BT-549 breast 91.3% | MDA-MB-435 melanoma 89.2% | SW-620 colon 82.8% | MCF7 breast 62.1% | HCT-116 colon 72.9% | HCC-2998 colon 81.7% | KM12 colon 93.9%

O=[N+]([O-])c1cc(Oc2ccc([N+](=O)[O-])cc2C(F)(F)F)cc([N+](=O)[O-])c1
inactive: MOLT-4 leukemia 67.1% | SR leukemia 94.4% | RPMI-8226 leukemia 91.8% | OVCAR-8 ovarian 96.7% | OVCAR-5 ovarian 114% | OVCAR-4 ovarian 79.3% | SK-OV-3 ovarian 107% | IGROV1 ovarian 98.7% | OVCAR-3 ovarian 90.9% | HS 578T breast 104% | NCI/ADR-RES ovarian 91.5% | T-47D breast 88% | BT-549 breast 94.3% | MDA-MB-435 melanoma 110% | SW-620 colon 112% | MCF7 breast 99.6% | HCT-116 colon 90.9% | HCC-2998 colon 104% | KM12 colon 102%
